Data from ChEMBL document CHEMBL1125696, “Synthesis and structure-activity relationships of deltorphin analogues” (J Med Chem, 1991).

Amino acid sequences for entries named in this document (tags omitted).
UniProt P32300, whole entry: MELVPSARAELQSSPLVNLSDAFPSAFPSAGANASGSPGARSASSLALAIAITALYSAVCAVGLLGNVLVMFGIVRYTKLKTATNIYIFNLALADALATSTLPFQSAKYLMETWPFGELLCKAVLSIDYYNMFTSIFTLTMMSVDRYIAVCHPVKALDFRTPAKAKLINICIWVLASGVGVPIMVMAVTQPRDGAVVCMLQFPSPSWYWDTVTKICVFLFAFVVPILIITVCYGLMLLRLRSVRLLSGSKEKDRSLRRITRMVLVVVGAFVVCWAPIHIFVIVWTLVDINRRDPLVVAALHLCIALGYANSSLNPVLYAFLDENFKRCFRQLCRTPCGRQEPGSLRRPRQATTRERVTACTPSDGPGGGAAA
UniProt P33535, whole entry: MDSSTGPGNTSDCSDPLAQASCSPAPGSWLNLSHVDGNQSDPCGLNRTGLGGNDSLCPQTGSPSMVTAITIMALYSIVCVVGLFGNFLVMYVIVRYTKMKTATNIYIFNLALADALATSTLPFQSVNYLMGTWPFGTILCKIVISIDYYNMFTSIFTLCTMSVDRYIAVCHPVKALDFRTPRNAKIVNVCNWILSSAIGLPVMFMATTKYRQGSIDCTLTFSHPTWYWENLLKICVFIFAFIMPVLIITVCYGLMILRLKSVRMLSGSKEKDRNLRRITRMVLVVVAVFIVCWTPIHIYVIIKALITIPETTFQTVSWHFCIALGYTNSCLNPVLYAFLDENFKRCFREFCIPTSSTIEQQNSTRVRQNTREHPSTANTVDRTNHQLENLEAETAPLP

Experiments:
[1] = target: Delta-type opioid receptor (Mus musculus, UniProt P32300); test: In vitro opioid receptor delta mediated mouse vas deferens (MVD) assay; assay type: tissue-based
Mu-type opioid receptor = Mu-type opioid receptor (Rattus norvegicus, UniProt P33535); test: Displacement of [3H]- DAGO from opioid receptor mu in rat brain membrane; assay type: cell membranes

SMILES	IC50 [1] [nM]	IC50 (Mu-type opioid receptor) [nM]
CC(C)[C@H](NC(=O)[C@H](CC(=O)O)NC(=O)[C@H](Cc1ccccc1)NC(=O)[C@H](C)NC(=O)[C@@H](N)Cc1ccc(O)cc1)C(=O)N[C@H](C(=O)NCC(N)=O)C(C)C	0.14	–
CC(C)[C@H](NC(=O)[C@H](CCC(=O)O)NC(=O)[C@H](Cc1ccccc1)NC(=O)[C@H](C)NC(=O)[C@@H](N)Cc1ccc(O)cc1)C(=O)N[C@H](C(=O)NCC(N)=O)C(C)C	0.75	3200
